Values quoted from earlier work in patent publication US8093043B2, “β-TrCP1, β-TrCP2 and RSK1 or RSK2 inhibitors and methods for sensitizing target cells to apoptosis” (New York University, priority 2008, dated 2012).

How the values were obtained:
HCC827 cells = conditions: EGFR mutant NSCLC; cited from earlier work
[1] = test system: NSCLCs with EGFR mutations; conditions: initially; cited from earlier work

For `COc1cc2ncnc(Nc3ccc(F)c(Cl)c3)c2cc1OCCCN1CCOCC1` [gefitinib], the sensitivity to gefitinib (HCC827 cells) is given as “sensitive” and the apoptotic response [1] is given as “trigger a BimEL-dependent apoptotic response”.
